From EP1166781A1, “PROTEASOME INHIBITORS” (KYOWA HAKKO KOGYO CO., LTD., priority 1999, dated 2000)

Target: proteasome (Homo sapiens, UniProt P28074)
Test: Proteasome inhibitory activity (Suc-Leu-Leu-Val-Tyr-AMC cleavage, crude enzyme solution from HeLa S3 cell extract)
Conditions: crude proteasome fraction (>500K) from HeLa S3 cells; substrate Suc-Leu-Leu-Val-Tyr-AMC; 37°C for one hour; tested form: free

- pIC50: 7.39
SMILES: CCC(C)C1C(=O)OC1C(=O)NC1CC1CC(NC(=O)C(C)NC(=O)CO)C(=O)OCc1ccccc1 (stereo not shown)

pIC50: −log10 of the molar value.
